Assay results from PubChem BioAssay AID504773 (Broad Institute, 2011).
The list shows a part of the results, in another mix than the full data. Entries with a potency or affinity are not part of this list. Calls of active or inactive are those of the source.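 Rule for the calls: active = polarization signal falls with dose and the fitted half-maximal concentration is at or below ten times the sample's top valid dose; inconclusive = flat curve at 30 to 70% inhibition, or poor fit; inactive = signal rises, flat within 30%, or potency beyond limit.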

Target: Golgi-associated PDZ and coiled-coil motif-containing protein (Homo sapiens) (UniProt Q9HD26)
Test: potency against CAL PDZ-peptide interaction – biochemical, fluorescence polarization, Cerulean-tagged CAL PDZ, cherry-picks, dose response (AID 504773);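 note: 0% = DMSO neutral wells and -100% = excess unlabeled competitor peptide wells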
Conditions: CAL PDZ-peptide binding, 1 h; at 50 µM (top of the series)

With `CC1CCNP(=O)(N(CCCl)CCCl)O1` (stereo unspecified) the activity change, negative = inhibition was inactive: 22.7%.
